Antibody variant affinities, Ab-95 light chain, assay 2

Binding partner: SARS-CoV-2 spike HR2 peptide, sequence PDVDLGDISGINAS.

Parent scFv Ab-95: VH joined to VL by three GGGGS repeats. Changes lie in the light chain CDRs alone.
VH: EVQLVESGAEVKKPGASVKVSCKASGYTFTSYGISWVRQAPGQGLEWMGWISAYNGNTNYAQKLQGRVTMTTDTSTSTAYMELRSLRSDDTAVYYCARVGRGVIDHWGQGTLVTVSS
VL: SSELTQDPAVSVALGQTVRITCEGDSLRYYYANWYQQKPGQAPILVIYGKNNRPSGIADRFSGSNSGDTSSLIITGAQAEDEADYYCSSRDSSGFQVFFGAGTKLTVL

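In library AAYL52, one, two or three CDR residues were substituted; doubles and triples were drawn at random. AlphaSeq pools MATa yeast showing the antibodies with MATalpha yeast showing the peptide. Pairs that bind mate more often; barcode pairs of the diploids are counted by sequencing. A regression on co-assayed BCL2-family reference pairs converts the normalised counts of each replicate to an apparent Kd. Mating was done three times.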

Variants are written as CDR1, CDR2 and CDR3 of the light chain (limits as in the source). Parent: EGDSLRYYYAN, GKNNRPS, SSRDSSGFQVF. Affinities are written as log10 Kd with Kd in nM; a lower number is a better binder. Averages over replicates are reported, and they cover detected replicates only. Where no diploid with the target was found in any replicate, the entry reads "nd": below detection, most likely a poor binder, though not proof of it. Parent in this assay: reference entry 2.31, copy in this library 2.25. Nonspecific signal, from three strains lacking the peptide, appeared in 28% of pairings of library AAYL52, centred on 3.91 (5% of these signals below 2.90); values are not corrected for it. For each scFv, signals with the empty controls are counted beside the result.

mean log10 Kd (nM) | detected | signal with controls | CDR-L1 | CDR-L2 | CDR-L3
4.62 | 1/3 | 1/9 | EGDSLRYYYAL | GKNNRPS | ESRDSGGFQVF
2.47 | 3/3 | 6/9 | EGDSLRQYYAN | GKNNKPS | SSRDSSIFQVF
2.45 | 3/3 | 4/9 | EGDSLRYYYAN | GKNNRPS | SSIDYSGFQVH
2.56 | 3/3 | 7/9 | EGDSLRYYKAN | GKNNRPS | SSRPSSGFQWF
4.33 | 3/3 | 5/9 | EGDSLRYYYIN | GKNNTHS | SSRDSSGFQVF
0.87 | 3/3 | 5/9 | EGDSLRGYYAN | GKNNRPS | SSRDNSGFQVF
5.65 | 2/3 | 0/9 | EGDSTRYYYAN | GKNNRPS | SSRDSSGFQID
nd | 0/3 | 0/9 | EGDSLRYYYAY | GKNNVRS | SSRDSSGFQVF
nd | 0/3 | 2/9 | EGDSLRLYYAV | GKNNRPS | SSRDSSGQQVF
3.96 | 3/3 | 1/9 | EGWSLVYYYPN | GKNNRPS | SSRDSSGFQVF
2.93 | 3/3 | 2/9 | EIDSLRYYYPN | GKNNRPS | SSRDSSGNQVF
3.66 | 1/3 | 4/9 | IGDSLRYYYAN | GKNWRPS | SSRDSWGFQVF
nd | 0/3 | 0/9 | EGDSLRYYYAN | GKNNRWS | ESKDSSGFQVF
4.07 | 2/3 | 3/9 | EGDSSRYYYAN | GSNNRPS | SSRDSSGFQVF
3.35 | 3/3 | 1/9 | EGDSLHYYFAN | GKNNRRS | SSRDSSGFQVF
nd | 0/3 | 0/9 | EGDSHRYYYAN | GKNNRSS | SSRQSSGFQVF
3.24 | 3/3 | 1/9 | NHDSKRYYYAN | GKNNRPS | SSRDSSGFQVF
1.70 | 3/3 | 2/9 | EGDSLRKEYAN | GKNNRFS | SSRDSSGFQVF
3.21 | 3/3 | 2/9 | EGDSLRYYYAN | GKNDRPI | SSRDSRGFQVF
nd | 0/3 | 2/9 | EGDSLRYYYAN | YKNNRPS | SYRDSSGFQPF
5.17 | 2/3 | 3/9 | EGDSLRYYYAN | GKNNRPS | MTRDSSNFQVF
4.32 | 2/3 | 7/9 | EGDSLRYYYAM | GKNNRPS | SSRDSSPSQVF
2.76 | 3/3 | 2/9 | EGDSLRYYYAN | GKNNRPM | SSRVSSGFQVF
1.73 | 3/3 | 4/9 | EGDYLRYHYAN | GKNNRPS | SSRDNSGFQVF
4.55 | 2/3 | 2/9 | EGDSLRYYYAN | GKVNRPS | SFRDSSGFQHF
4.17 | 3/3 | 2/9 | EGDSLRYYSAN | GKMNRPS | SSRDSMGFQVF
4.90 | 1/3 | 1/9 | EGDSLRAYYAH | GKNNRPS | SSRDKSGFQVF
2.60 | 3/3 | 2/9 | EGASLRYYPAN | GKNNRPS | SNRDSSGFQVF
3.51 | 2/3 | 3/9 | EGDSLRYYYAV | GKNNRPS | MSRDSWGFQVF
3.29 | 1/3 | 1/9 | EGDSLRYYYAN | GKNNRPS | SSRPSSLPQVF
nd | 0/3 | 0/9 | EGDSLQYYYAN | GKNPRPS | SSRDSSGFQGF
3.20 | 3/3 | 4/9 | EGDSLRWYYAN | GRNNRMS | SSRDSSGFQVF
3.54 | 3/3 | 2/9 | EGDSLRYYYAN | GKNHRPS | SLLDSSGFQVF
3.14 | 2/3 | 0/9 | ELDSLRYYYAN | GKNNRPS | SSRDQSGMQVF
4.54 | 3/3 | 4/9 | EGDSLRYYFAN | GKMNRPS | SGRDSSGFQVF
3.78 | 3/3 | 6/9 | EGISLRYYYAN | GYNNRPS | SSRDSSVFQVF
0.80 | 3/3 | 1/9 | EGDSLRYNHAN | GKNNRPS | SSRDSSGFQVF
3.61 | 2/3 | 1/9 | ENDSLRYYYAN | GKNNRPS | TSRDSSGFQQF
5.07 | 1/3 | 4/9 | EGDSLRYYYAY | GKNNRPS | SDRDSSGFQVF
2.24 | 3/3 | 5/9 | EGYSLRYVYAN | GKNNRPS | SSRDSSGFQCF
3.18 | 1/3 | 1/9 | EGDYLRYYYAN | GKVNRWS | SSRDSSGFQVF
2.87 | 3/3 | 1/9 | EGDSLRYYYAN | GKRNRPS | SSWDCSGFQVF
4.52 | 1/3 | 2/9 | EGDSLRYIYAN | GKNNRPS | SSRHSSGFQVC
4.66 | 1/3 | 3/9 | EGDSLRYYYGN | GKNNRIS | SSRDSSGFQVF
3.53 | 1/3 | 2/9 | EGDSLRYYWAN | GKNNRPS | SCRQSSGFQVF
3.91 | 2/3 | 2/9 | EGDSLRYYYAN | WPNNRRS | SSRDSSGFQVF
3.80 | 3/3 | 2/9 | EGDSLRYQYAN | GKRNRPS | SSRDSMGFQVF
4.56 | 1/3 | 2/9 | EGPSLRYYYAN | GKVNRPS | SSRDSSGFHVF
3.54 | 2/3 | 2/9 | EGDSLRYYQAN | QKNNRNS | SSRDSSGFQVF
2.83 | 3/3 | 3/9 | EGDSLRYYYAN | GKNSRPS | SSRVSSRFQVF
2.63 | 3/3 | 4/9 | AGDSLRYYYAN | GTNNRLS | SSRDSSGFQVF
4.51 | 1/3 | 2/9 | EGDSLRYYYAN | GKNNWCN | SSRDSSGFQVF
2.45 | 3/3 | 4/9 | EGDSLKYYYAN | GKNNRPS | SSRDSHGFEVF
3.45 | 3/3 | 3/9 | EGDSLRNYYAC | GKNNTPS | SSRDSSGFQVF
3.93 | 3/3 | 2/9 | EGLSLRLYYAN | GKNNRPS | SSRDSSGFQVF

Picked from the list: the 4 lowest averages where every replicate gave a value.

CDR-L1 | CDR-L2 | CDR-L3 | mean log10 Kd (nM) | detected | signal with controls
EGDSLRYNHAN | GKNNRPS | SSRDSSGFQVF | 0.80 | 3/3 | 1/9
EGDSLRGYYAN | GKNNRPS | SSRDNSGFQVF | 0.87 | 3/3 | 5/9
EGDSLRKEYAN | GKNNRFS | SSRDSSGFQVF | 1.70 | 3/3 | 2/9
EGDYLRYHYAN | GKNNRPS | SSRDNSGFQVF | 1.73 | 3/3 | 4/9

From the AlphaSeq antibody data of Engelhart et al. 2022 (doi:10.1038/s41597-022-01779-4), copy in the FLAb collection.